In PubChem BioAssay AID1025 (Sanford-Burnham Center for Chemical Genomics, 2008):
The list shows a part of the results. Some tests of the compounds listed are not included; inactive here does not mean inactive elsewhere. Activity calls are given as the source filed them.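 Rule for the calls: active = activation factor of at least 2 at 5 µM in the primary screen; inactive = the rest.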

Sequences of proteins named here, by UniProt entry; tags and fusion partners are left off.
UniProt P33261, whole entry: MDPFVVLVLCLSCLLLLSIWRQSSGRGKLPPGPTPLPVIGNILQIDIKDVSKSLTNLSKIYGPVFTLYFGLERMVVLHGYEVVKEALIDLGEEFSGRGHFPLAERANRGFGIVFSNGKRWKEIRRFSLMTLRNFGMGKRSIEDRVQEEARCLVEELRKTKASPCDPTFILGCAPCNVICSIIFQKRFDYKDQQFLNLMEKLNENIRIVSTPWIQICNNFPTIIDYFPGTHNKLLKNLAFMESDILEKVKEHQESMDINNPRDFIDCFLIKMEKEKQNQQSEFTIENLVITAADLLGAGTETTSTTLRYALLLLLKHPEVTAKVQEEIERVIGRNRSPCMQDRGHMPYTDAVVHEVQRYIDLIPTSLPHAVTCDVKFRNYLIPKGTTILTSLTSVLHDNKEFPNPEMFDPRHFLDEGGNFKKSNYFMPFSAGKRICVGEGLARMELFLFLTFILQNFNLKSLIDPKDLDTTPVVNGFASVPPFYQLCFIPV

What follows are compounds tested against Cytochrome P450 2C19 (Homo sapiens) (UniProt P33261) (assay: human CYP2C19 activators, primary screen, biochemical, luminescence (AID 1025;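 note: 0 = wells with 2.5 mM tranylcypromine and 1 = vehicle-only wells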)). Details: recombinant CYP2C19, luciferin-H EGE luminescence; at 5 µM; active compounds read high; 0 = fully inhibited enzyme, 1 = untreated enzyme.

Compound	activation factor
O=C(OC1CN2CCC1CC2)C(CO)(c1ccccc1)c1ccccc1 (stereo not drawn)	inactive: 1.1
CN(C)c1cccc(C(=O)NCC2(N(C)C)CCCCC2)c1	inactive: 1
CC(C)N1C(=O)CC2(CCN(CCOC(=O)C(O)(c3ccccc3)c3ccccc3)CC2)C1=O	inactive: 1.1
